Sequences of proteins named here, by UniProt entry; tags and fusion partners are left off. Residues count along the entry.
UniProt Q9UNA0, 262-930: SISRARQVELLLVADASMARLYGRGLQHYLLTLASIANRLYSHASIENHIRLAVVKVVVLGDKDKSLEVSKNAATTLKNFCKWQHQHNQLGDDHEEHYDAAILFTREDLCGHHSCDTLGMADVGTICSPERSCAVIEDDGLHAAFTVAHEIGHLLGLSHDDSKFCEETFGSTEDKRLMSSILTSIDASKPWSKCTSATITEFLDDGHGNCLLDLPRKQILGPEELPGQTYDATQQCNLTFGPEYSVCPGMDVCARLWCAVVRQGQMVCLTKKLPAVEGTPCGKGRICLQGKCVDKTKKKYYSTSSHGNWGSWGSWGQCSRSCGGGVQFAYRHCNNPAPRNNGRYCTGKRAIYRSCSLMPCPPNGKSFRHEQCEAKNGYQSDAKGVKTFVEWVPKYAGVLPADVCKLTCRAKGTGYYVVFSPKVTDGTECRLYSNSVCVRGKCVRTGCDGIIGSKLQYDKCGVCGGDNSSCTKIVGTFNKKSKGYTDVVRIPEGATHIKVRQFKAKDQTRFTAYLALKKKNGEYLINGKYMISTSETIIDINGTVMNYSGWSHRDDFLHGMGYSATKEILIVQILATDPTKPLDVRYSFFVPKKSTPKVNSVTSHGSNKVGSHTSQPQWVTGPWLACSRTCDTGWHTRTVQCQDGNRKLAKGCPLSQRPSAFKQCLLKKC
UniProt P78536, 215-671: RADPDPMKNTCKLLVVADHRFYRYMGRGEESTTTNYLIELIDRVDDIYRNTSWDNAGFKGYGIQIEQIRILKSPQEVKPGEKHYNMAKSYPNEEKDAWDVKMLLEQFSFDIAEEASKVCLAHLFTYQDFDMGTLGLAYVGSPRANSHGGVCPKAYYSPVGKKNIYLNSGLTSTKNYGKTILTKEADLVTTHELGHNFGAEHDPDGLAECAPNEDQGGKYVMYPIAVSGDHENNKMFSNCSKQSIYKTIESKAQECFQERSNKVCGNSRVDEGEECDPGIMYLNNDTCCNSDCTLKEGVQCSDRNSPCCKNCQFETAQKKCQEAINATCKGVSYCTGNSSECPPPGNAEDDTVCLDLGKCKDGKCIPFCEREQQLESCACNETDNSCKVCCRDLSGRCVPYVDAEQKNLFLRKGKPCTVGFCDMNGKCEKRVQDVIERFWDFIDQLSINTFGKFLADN
UniProt Q6TY19, entry or part of it: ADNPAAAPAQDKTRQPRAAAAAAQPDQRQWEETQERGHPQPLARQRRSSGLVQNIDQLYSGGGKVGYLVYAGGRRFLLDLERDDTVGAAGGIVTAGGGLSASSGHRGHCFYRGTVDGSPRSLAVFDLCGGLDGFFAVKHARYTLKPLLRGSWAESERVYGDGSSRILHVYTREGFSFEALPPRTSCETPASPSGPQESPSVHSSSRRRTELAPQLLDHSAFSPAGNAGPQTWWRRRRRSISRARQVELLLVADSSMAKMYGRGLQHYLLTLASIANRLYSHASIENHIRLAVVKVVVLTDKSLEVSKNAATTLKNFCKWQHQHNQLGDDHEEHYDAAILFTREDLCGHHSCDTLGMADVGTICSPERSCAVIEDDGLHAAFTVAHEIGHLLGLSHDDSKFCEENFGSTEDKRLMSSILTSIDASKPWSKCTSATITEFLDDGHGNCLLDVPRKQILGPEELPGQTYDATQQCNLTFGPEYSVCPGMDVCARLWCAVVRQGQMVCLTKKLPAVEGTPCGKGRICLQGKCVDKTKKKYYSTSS

According to US10829478B2, “5-[3-[piperazin-1-yl]-3-oxo-propyl]-imidazolidine-2,4-dione derivatives as ADAMTS 4 and 5 inhibitors for treating e.g. osteoarthritis” (Galapagos NV, priority 2016, dated 2020):

What was measured:
human ADAMTS-5 = human ADAMTS-5 (Homo sapiens (Human), UniProt Q9UNA0); assay: hADAMTS-5 TBIS-1 cleavage assay, Protocol 3; assay type: biochemical; conditions: 90 min at 37° C., read-out: hADAMTS-5 potency IC50
human TACE = human TACE (Homo sapiens (Human), UniProt P78536); assay: biochemical
human MMP14 = human MMP14 (Homo sapiens (Human), UniProt P50281); assay: hMMP14 assay (390 MMP FRET Substrate I); assay type: biochemical; conditions: human MMP14 (Biomol), read-out: hMMP-14 potency IC50
rnADAMTS-5 (1-564-6H) = rnADAMTS-5 (1-564-6H) (Rattus norvegicus (Rat), UniProt Q6TY19); assay: Rat ADAMTS-5 TBIS-1 cleavage assay; assay type: biochemical; conditions: 120 min at 37° C.; read-out: Rat ADAMTS-5 potency IC50

| IC50 (human ADAMTS-5) | IC50 (human TACE) | IC50 (human MMP14) | IC50 (rnADAMTS-5 (1-564-6H)) | SMILES |
| --- | --- | --- | --- | --- |
| 25 to 50 nM | > 100 nM | – | – | CCc1cc(N2CCN(C(=O)[C@@H](C)C[C@@]3(COC)NC(=O)NC3=O)C[C@@H]2C)ccc1Cl (stereo in doubt) [Cpd 124, 5-[3-[(3S)-4-(4-chloro-3-ethyl-phenyl)-3-methyl-piperazin-1-yl]-2-methyl-3-oxo-propyl]-5-(methoxymethyl)imidazolidine-2,4-dione] |
| > 100 nM | > 100 nM | > 100 nM | – | CCc1cc(N2CCN(C(=O)CCC3(CCC(=O)O)NC(=O)NC3=O)C[C@@H]2C)ccc1Cl (stereo partly drawn) [Cpd 116, 3-[4-[3-[(3 S)-4-(4-chloro-3-ethyl-phenyl)-3-methyl-piperazin-1-yl]-3-oxo-propyl]-2,5-dioxo-imidazolidin-4-yl]propanoic acid] |

Further lines, the compound ahead of its results:

| SMILES | IC50 (human ADAMTS-5) | IC50 (human TACE) | IC50 (human MMP14) | IC50 (rnADAMTS-5 (1-564-6H)) |
| --- | --- | --- | --- | --- |
| CC(C)c1cc(N2CCN(C(=O)CC[C@@]3(C)NC(=O)NC3=O)C[C@@H]2C)ccc1Cl [Cpd 85, (5R)-5-[3-[(3 S)-4-(4-chloro-3-isopropyl-phenyl)-3-methyl-piperazin-1-yl]-3-oxo-propyl]-5-methyl-imidazolidine-2,4-dione] | > 100 nM | > 100 nM | > 100 nM | > 100 nM |
| CCc1cc(N2CCN(C(=O)CCC3(CC(=O)O)NC(=O)NC3=O)C[C@@H]2C)ccc1Cl (stereo partly drawn) [Cpd 98, 2-[4-[3-[(3 S)-4-(4-chloro-3-ethyl-phenyl)-3-methyl-piperazin-1-yl]-3-oxo-propyl]-2,5-dioxo-imidazolidin-4-yl]acetic acid] | > 100 nM | – | – | – |
| CCc1cc(N2CCN(C(=O)CCC3(CCC(=O)OC(C)(C)C)NC(=O)NC3=O)C[C@@H]2C)ccc1Cl (stereo partly drawn) [Cpd 114, tert-butyl 3-[4-[3-[(3S)-4-(4-chloro-3-ethyl-phenyl)-3-methyl-piperazin-1-yl]-3-oxo-propyl]-2,5-dioxo-imidazolidin-4-yl]propanoate] | > 100 nM | – | > 100 nM | – |
